Reference: patent US9029409B2, “Isoxazolines as therapeutic agents” (AbbVie Inc., priority 2011, dated 2015)

Biological target: recombinant human MMP13 catalytic domain (CD) (Homo sapiens, UniProt P45452)
Assay: MMP-13 catalytic domain FRET enzyme assay
Conditions: read-out: MMP13 (CD) IC50, recombinant human MMP-13 catalytic domain
Method: A recombinant human MMP13 catalytic domain (CD) construct encompassing residues 20-274 (SWISS-PROT P45452) was generated by synthetic gene methods and bacterial expression. MMP-13 activity assays were performed using the recombinant human MMP-13 CD at a 0.4 nM concentration and the fluorogenic substrate (QXL-520)-K-P-L-A˜Nva-Dap(5-FAM)-A-R-NH2 (Anaspec cat #60554-01, San Jose, Calif.) at a 0.25 μM concentration in assay buffer containing […], pH 7.5, 10 mM CaCl2, 150 mM NaCl, 0.05% Brij 35. The assay is based on the cleavage of this substrate by MMP-13, resulting in decrease of FRET between the donor-acceptor pair and subsequent fluorescence enhancement. The assays were carried out in 384-well plates (Greiner cat #781076, Germany) for 60 min at RT. After the incubation period, the reaction was quenched by the addition of 5 μL of 500 mM EDTA (100 mM final concentration) (Rankem, Cat #E0120, India) mixed well and the rate of substrate hydrolysis was determined by monitoring change in fluorescence at excitation and emission wavelengths of 485 nm and 535 nm respectively. Fluorescence was measured on a Victor V5 plate reader (Perkin Elmer, Turku, Finland). […]
MMP13 Catalytic Domain (CD) Potency of the Described Examples Determined Using Time Resolved Fluorescence Resonance Energy Transfer (FRET) Enzyme Assays: […]

- IC50: < 10 nM
Structure (SMILES): CCCS(=O)(=O)N1CCC(C2CC(c3cc(C(=O)NCc4ccc(F)c(OC)c4)nc(C)n3)=NO2)CC1 (stereo not shown)
